Reference: US10828317B2, “Method of treating bacterial infections” (priority 2016, dated 2020)
Read-outs that look alike come from different tables or passages of the source.

Test system: E. cloacae strain no 6

O=c1[nH]c(=O)n([C@H]2C[C@H](O)[C@@H](CO)O2)cc1F [FdUrd, Fluorodeoxyuridine]
MIC FdUrd (trimethoprim 0, uridine 0 μg/ml): >30 mg/L | MIC FdUrd (trimethoprim 0, uridine 10 μg/ml): >30 mg/L | MIC FdUrd (trimethoprim 1, uridine 0 μg/ml): >2.5 mg/L | MIC FdUrd (trimethoprim 1, uridine 10 μg/ml): >2.5 mg/L
